Assay results reported in PMC7760315 (Biomolecules, 2020).

Amino acid sequences for entries named in this document (tags omitted). Residues count along the entry.
UniProt O75311, 34-464: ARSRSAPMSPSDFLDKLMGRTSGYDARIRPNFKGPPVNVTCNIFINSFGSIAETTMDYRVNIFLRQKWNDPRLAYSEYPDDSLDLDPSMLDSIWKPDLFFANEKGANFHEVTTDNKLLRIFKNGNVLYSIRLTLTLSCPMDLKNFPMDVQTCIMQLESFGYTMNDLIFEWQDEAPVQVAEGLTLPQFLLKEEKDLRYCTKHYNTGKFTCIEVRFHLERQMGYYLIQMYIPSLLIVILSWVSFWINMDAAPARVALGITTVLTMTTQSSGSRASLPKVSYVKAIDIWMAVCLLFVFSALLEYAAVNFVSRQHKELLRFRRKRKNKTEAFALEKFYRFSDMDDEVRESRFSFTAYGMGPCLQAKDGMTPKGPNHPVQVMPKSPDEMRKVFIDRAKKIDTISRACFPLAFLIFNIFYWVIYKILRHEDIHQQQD
UniProt P48167, 23-497: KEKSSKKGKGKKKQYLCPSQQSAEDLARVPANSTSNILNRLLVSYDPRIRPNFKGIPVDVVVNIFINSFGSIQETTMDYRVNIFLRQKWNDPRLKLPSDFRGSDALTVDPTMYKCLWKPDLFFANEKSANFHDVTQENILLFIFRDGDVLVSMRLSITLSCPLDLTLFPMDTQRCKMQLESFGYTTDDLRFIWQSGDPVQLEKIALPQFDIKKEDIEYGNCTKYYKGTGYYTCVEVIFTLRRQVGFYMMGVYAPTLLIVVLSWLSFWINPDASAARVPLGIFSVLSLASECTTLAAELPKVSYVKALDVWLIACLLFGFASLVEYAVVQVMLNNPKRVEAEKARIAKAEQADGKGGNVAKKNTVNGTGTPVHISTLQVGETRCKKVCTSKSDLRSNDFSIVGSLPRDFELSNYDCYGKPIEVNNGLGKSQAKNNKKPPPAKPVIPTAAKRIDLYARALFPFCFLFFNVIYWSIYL

Target: GlyRα3β (Homo sapiens, UniProt O75311+P48167)
Conditions: read-out: Fast-Flow Glycine EC50
Text: Human GlyT1b and GlyT2a WT cDNA were subcloned into the plasmid oocyte transcription vector (pOTV) and human GlyRα1, GlyRα3 and GlyRβ into pGEMHE. GlyR cDNA pGEMHE vectors were provided by Mary Collins at the University of Sydney (Sydney, Australia). Single point mutations were introduced into GlyRα1 using the Q5 site-directed mutagenesis kit (New England Biolabs (Genesearch), Arundel, Australia) with oligonucleotide primers (Merck, Sydney, Australia) containing the desired mutations. The amplified cDNA/pOTV or cDNA/pGEMHE product was then transformed in E. coli cells, and subsequently purified using the PureLink Quick Plasmid Miniprep Kit (Invitrogen by Life Technologies, Löhne, Germany), and sequenced by the Australian Genome Research Facility (Sydney, Australia). […]
GlyT1, GlyT2, GlyRα1, GlyRα3, GlyRα1β and GlyRα3β are electrogenic, allowing activation to be measured via the two-electrode voltage clamp technique. Oocytes were voltage clamped at −60 mV, and whole-cell currents generated by the substrate were recorded with a Geneclamp 500 amplifier (Axon Instruments, Foster City, CA, USA), digitised by a Powerlab 2/20 chart recorder (ADInstruments, Sydney, Australia). […]

NCC(=O)O [glycine]
EC50: 109 µM
